From PMC9495972, “Dissecting the Activity of Catechins as Incomplete Aldose Reductase Differential Inhibitors through Kinetic and Computational Approaches” (Biology, 2022)
Like-named read-outs stand apart in the source and are kept apart here.

Assays:
[1] = biological target: T1, human recombinant AKR1B1 (Homo sapiens, UniProt P15121); assay: Inhibition kinetic analysis of AKR1B1-dependent reduction of L-idose, HNE and GSHNE; assay type: biochemical
T1 construct: made in house
Experimental: (§1) The AKR1B1 activity was determined at 37 °C, as previously described, monitoring the decrease in absorbance at 340 nm linked to NADPH oxidation (ε340 = 6.22 mM^−1·cm^−1) using a Biochrom Libra S60 spectrophotometer. The standard assay mixture (0.7 mL) contained 0.25 M sodium phosphate buffer pH 6.8, 0.18 mM NADPH, 0.4 M ammonium sulfate, 0.5 mM EDTA, and 4.7 mM GAL. One unit of enzyme activity is the amount of enzyme that catalyzes the conversion of 1 µmol of substrate/min in the above assay conditions.
(§2) The human recombinant AKR1B1 was expressed and purified to electrophoretic homogeneity, as previously described. […] The purified enzyme was stored at −80 °C in a 10 mM sodium phosphate buffer pH 7.0 containing 2 mM DTT and 30% (w/v) glycerol. Before use, AKR1B1 was extensively dialyzed against 10 mM sodium phosphate buffer pH 7.0.
The kinetic parameters ^appkcat and ^appKM were evaluated by non-linear regression analysis of rate measurements vs. substrate concentration according to Michaelis-Menten equation. The analysis was performed through GraphPad Prism 7.04 software by a non-linear “Robust Regression” analysis in which each point is individually weighted through iterative weighing of the smallest squares. The same approach was adopted to analyze the dependence of ^appkcat, ^appKM, and ^appKM/^appkcat from the concentration of the inhibitors [I], making use of previously derived equations [27] (see text).
The hyperbolic kinetic equation for an incomplete mixed type of inhibition analyzed with both branches of product formation at the steady state and with the inhibitor binding at equilibrium, was defined using the apparent kinetic parameters ^appKM and ^appkcat (Equations (1)–(3), see ref [27] for further details). (1) kappcat=Ki*k+2+k+4[I]/Ki*+[I] (2) appKM=KMKi*+(Ki*/KiKM+k+4/k+1)[I]+k+4/Kik+1[I]^2/Ki*+[I] (3) appKM/appkcat= KMKi*+(Ki*/KiKM+k+4/k+1)[I]+k+4/Kik+1[I]^2/Ki*k+2+k+4[I]
Thus, ^appkcat and ^appKM values emerging from non-linear regression analysis of primary data (Figure 3) were analyzed through non-linear regression using Equations (1) and (2), respectively. […] The above starting values of kcat and KM derived from at least 20 independent experiments in which kinetic parameters were measured in the absence of inhibitors. […] The k+4 values are reported in Table 1 as the average of values emerging from ^appKM/^appkcat versus [I] (Equation (3) or Equation (4)) and 1/^appkcat versus [I] (Equation (1)) plots.

[2] = biological target: T1, human recombinant AKR1B1; assay: AKR1B1 activity inhibition, decrease in absorbance at 340 nm linked to NADPH oxidation; assay type: biochemical; details: 10 mU AKR1B1, 37 °C, pH 6.8, 95% CLs in text
Experimental: as §1
IC50 values were determined by non-linear regression analysis using GraphPad Prism version 7.04 (GraphPad Software, San Diego, CA, USA). Values were obtained from at least six different inhibitors concentrations (each assayed at least in triplicate) and are reported with their 95% Confidence Limits (CLs). […] The final concentration of ethanol in the assay was never higher than 1%. […] The percentage of inhibition was calculated referring to an assay performed using the same solvent concentration in the absence of inhibitors.
as §2

catechin gallate [CG]
Ki ([1]; GSHNE reduction, apparent dissociation constant of ternary complex EIS): 5 ± 0.2 µM
Ki ([1]; HNE reduction, apparent dissociation constant of ternary complex EIS): 4.5 ± 0.4 µM
Ki ([1]; L-idose reduction, apparent dissociation constant of ternary complex EIS): 4.1 ± 0.2 µM
Ki ([1]; L-idose reduction, dissociation constant of enzyme-inhibitor complex): 246 ± 170 µM
IC50 ([2]; read-out: IC50 for GSHNE reduction, 0.045 mM GSHNE as substrate): 28 µM
IC50 ([2]; read-out: IC50 for HNE reduction, 0.03 mM HNE as substrate): 26 µM
IC50 ([2]; read-out: IC50 for the reduction of L-idose, 8 mM L-idose as substrate): 7 µM
